Literature values as cited in EP4840446A1, “USE OF FUSED TRICYCLIC GAMMA-AMINO ACID DERIVATIVE IN TREATING PATHOLOGICAL CENTRAL NERVOUS PAIN” (dated 2026).

Sequences of proteins named here, by UniProt entry; tags and fusion partners are left off. A change or cut given only in a name is not applied to a line headed by its entry. Residues count along the entry.
UniProt P54289, 25-1103 limits assumed: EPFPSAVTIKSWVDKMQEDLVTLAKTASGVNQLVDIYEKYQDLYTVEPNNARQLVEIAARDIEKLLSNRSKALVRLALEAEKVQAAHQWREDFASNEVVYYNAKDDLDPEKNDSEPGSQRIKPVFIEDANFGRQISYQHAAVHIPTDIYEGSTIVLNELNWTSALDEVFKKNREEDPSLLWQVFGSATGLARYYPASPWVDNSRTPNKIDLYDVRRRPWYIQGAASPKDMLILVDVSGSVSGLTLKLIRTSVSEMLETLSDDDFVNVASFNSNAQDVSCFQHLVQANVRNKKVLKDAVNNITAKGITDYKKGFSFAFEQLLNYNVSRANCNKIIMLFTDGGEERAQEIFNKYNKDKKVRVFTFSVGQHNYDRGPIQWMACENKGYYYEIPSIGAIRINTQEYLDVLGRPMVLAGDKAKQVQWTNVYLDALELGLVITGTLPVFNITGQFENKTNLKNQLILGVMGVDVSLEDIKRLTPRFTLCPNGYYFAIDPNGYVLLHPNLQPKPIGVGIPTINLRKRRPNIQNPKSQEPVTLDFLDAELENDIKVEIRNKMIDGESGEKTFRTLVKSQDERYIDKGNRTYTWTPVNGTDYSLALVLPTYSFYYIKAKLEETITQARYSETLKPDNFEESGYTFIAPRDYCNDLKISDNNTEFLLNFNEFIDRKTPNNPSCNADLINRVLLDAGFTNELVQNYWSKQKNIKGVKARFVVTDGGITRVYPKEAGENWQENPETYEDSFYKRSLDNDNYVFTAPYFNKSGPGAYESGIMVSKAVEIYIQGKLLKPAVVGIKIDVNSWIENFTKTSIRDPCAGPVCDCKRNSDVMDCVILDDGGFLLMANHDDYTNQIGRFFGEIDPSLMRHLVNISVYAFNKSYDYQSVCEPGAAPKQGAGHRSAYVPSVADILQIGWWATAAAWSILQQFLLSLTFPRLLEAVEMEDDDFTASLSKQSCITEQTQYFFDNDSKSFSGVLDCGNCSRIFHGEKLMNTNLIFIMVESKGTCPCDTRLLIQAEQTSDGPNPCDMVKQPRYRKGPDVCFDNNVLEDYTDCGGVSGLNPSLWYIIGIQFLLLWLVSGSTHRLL

Experiments:
[1] = system: spinal cord injury-related neuropathic pain; details: patients with spinal cord injury-related neuropathic pain
[2] = biological target: α2δ-1 subunit of calcium channels (Homo sapiens, UniProt P54289)

| dissociation rate from the α2δ-1 ([2]; compared with pregabalin) | binding affinity and selectivity ([2]; α2δ-1 subunit of calcium channels) | Molecule | efficacy in relieving pain compared with placebo [1] |
| --- | --- | --- | --- |
|  |  | CC(C)C[C@H](CN)CC(=O)O | superior efficacy over placebo |
| slower rate compared with pregabalin | high binding affinity and selectivity | Mirogabalin |  |
